Values quoted from earlier work, collected in patent publication US20100203024A1 (priority 2006, published 2010).

Tested on: EGFR-positive colorectal cancer

**Q.** Which activity (cetuximab alone) does the source give for cetuximab here?
**A.** minimal activity

**Q.** What about the response rate (combined with irinotecan) of the same substance?
**A.** 22%
